# Permeability data for macrocyclic peptides

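Lipid, pH, incubation time, direction and concentration are not recorded in the data file. Other peptides of the study may be missing here. Peptides that the database sets to -10, its floor, are left out.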

PAMPA is the parallel artificial membrane permeability assay, which has no cells and reads passive diffusion.
Permeability is given as log10 of P in cm/s; higher (less negative) is more permeable.

| PAMPA (log10 cm/s) | structure (SMILES) |
|---|---|
| -5.13 | CCCN1CC(=O)N[C@@H](CC(C)C)C(=O)N(C)[C@H](CC(C)C)C(=O)N2CCC[C@@H]2C(=O)N(Cc2ccccc2)CC(=O)N[C@@H](Cc2ccccc2)C1=O |
| -6.16 | CCCN1CC(=O)N(Cc2ccccc2)CC(=O)N(Cc2ccccc2)CC(=O)N2CCC[C@H]2C(=O)N(C)[C@H](CC(C)C)C(=O)N[C@@H](Cc2ccccc2)C(=O)N2CCC[C@H]2C1=O |
| -6.33 | CC(C)C[C@H]1NC(=O)[C@@H]2CCCN2C(=O)C[C@H](Cc2ccccc2)NC(=O)CN(Cc2ccccc2)C(=O)[C@@H](C)NC(=O)[C@H](Cc2ccccc2)NC1=O |
| -6.09 | O=C1CN(Cc2ccccc2)C(=O)C[C@H](Cc2ccccc2)NC(=O)[C@H]2CCCN2C(=O)[C@H](Cc2ccccc2)NC(=O)CN(Cc2ccccc2)C(=O)[C@@H]2CCCN2C(=O)C[C@H](Cc2ccccc2)N1 |
| -5.74 | CC(C)C[C@@H]1C(=O)N(Cc2ccccc2)CC(=O)N2CCC[C@H]2C(=O)N(Cc2ccccc2)CC(=O)N[C@@H](Cc2ccccc2)C(=O)N2CCC[C@@H]2C(=O)N[C@@H](Cc2ccccc2)CC(=O)N1C |
| -5.32 | CC(C)C[C@H]1C(=O)N[C@@H](Cc2ccccc2)CC(=O)N2CCC[C@H]2C(=O)N(C)[C@@H](CC(C)C)C(=O)N[C@@H](Cc2ccccc2)C(=O)N[C@@H](Cc2ccccc2)CC(=O)N1C |
| -5.98 | CC(C)C[C@@H]1NC(=O)[C@@H]2CCCN2C(=O)[C@H](CC(C)C)NC(=O)CN(Cc2ccccc2)C(=O)[C@@H](C)N(C)C(=O)[C@H]2CCCN2C(=O)[C@H](Cc2ccccc2)NC1=O |
| -5.28 | CC(C)C[C@H]1NC(=O)C[C@H](Cc2ccccc2)NC(=O)[C@H](Cc2ccccc2)NC(=O)CN(Cc2ccccc2)C(=O)[C@@H]2CCCN2C(=O)[C@H](CC(C)C)N(C)C1=O |
| -5.67 | CC(C)C[C@H]1C(=O)N(Cc2ccccc2)CC(=O)N2CCC[C@@H]2C(=O)N(Cc2ccccc2)CC(=O)N[C@@H](Cc2ccccc2)C(=O)N[C@@H](C)C(=O)N1C |
| -6.03 | C[C@@H]1NC(=O)[C@H]2CCCN2C(=O)[C@H](Cc2ccccc2)NC(=O)CN(Cc2ccccc2)C(=O)[C@@H]2CCCN2C(=O)CN(Cc2ccccc2)C(=O)CN(Cc2ccccc2)C1=O |
| -6.24 | CC(C)C[C@@H]1C(=O)N2CCC[C@H]2C(=O)N(Cc2ccccc2)CC(=O)N[C@@H](Cc2ccccc2)C(=O)N2CCC[C@H]2C(=O)N[C@@H](C)C(=O)N(Cc2ccccc2)CC(=O)N1C |
| -6.44 | CC(C)C[C@H]1NC(=O)[C@@H](C)NC(=O)[C@H]2CCCN2C(=O)[C@H](Cc2ccccc2)NC(=O)CN(Cc2ccccc2)C(=O)[C@H]2CCCN2C(=O)C[C@H](Cc2ccccc2)NC1=O |
| -5.70 | CCCN1CC(=O)N(C)[C@@H](CC(C)C)C(=O)N(Cc2ccccc2)CC(=O)N2CCC[C@@H]2C(=O)N(Cc2ccccc2)CC(=O)N[C@@H](Cc2ccccc2)C1=O |
| -5.54 | CC(C)C[C@H]1C(=O)N[C@@H](Cc2ccccc2)CC(=O)N2CCC[C@H]2C(=O)N(Cc2ccccc2)CC(=O)N[C@@H](Cc2ccccc2)C(=O)N[C@@H](Cc2ccccc2)CC(=O)N1C |
| -6.36 | CC(C)C[C@@H]1NC(=O)[C@@H]2CCCN2C(=O)[C@@H](CC(C)C)NC(=O)CN(Cc2ccccc2)C(=O)[C@H](C)N(C)C(=O)[C@H]2CCCN2C(=O)[C@H](Cc2ccccc2)NC1=O |
| -6.07 | CC(C)C[C@H]1NC(=O)C[C@H](Cc2ccccc2)NC(=O)[C@@H]2CCCN2C(=O)[C@H](Cc2ccccc2)NC(=O)CN(Cc2ccccc2)C(=O)[C@H]2CCCN2C(=O)CN(Cc2ccccc2)C1=O |
| -6.02 | CC(C)C[C@H]1NC(=O)[C@H]2CCCN2C(=O)CN(Cc2ccccc2)C(=O)CN(Cc2ccccc2)C(=O)[C@H](C)N(C)C(=O)[C@H]2CCCN2C(=O)[C@H](Cc2ccccc2)NC1=O |
| -5.54 | CCCN1CC(=O)N(Cc2ccccc2)CC(=O)N(C)[C@H](CC(C)C)C(=O)N2CCC[C@@H]2C(=O)N(C)[C@H](CC(C)C)C(=O)N[C@@H](Cc2ccccc2)C1=O |
| -5.46 | CC(C)C[C@H]1C(=O)N(Cc2ccccc2)CC(=O)N2CCC[C@H]2C(=O)N(Cc2ccccc2)CC(=O)N[C@@H](Cc2ccccc2)C(=O)N[C@@H](Cc2ccccc2)CC(=O)N1C |
| -5.38 | CC(C)C[C@@H]1NC(=O)C[C@H](Cc2ccccc2)NC(=O)[C@H](Cc2ccccc2)NC(=O)[C@@H](CC(C)C)N(C)C(=O)[C@H]2CCCN2C(=O)CN(Cc2ccccc2)C1=O |
| -5.48 | CC(C)C[C@@H]1NC(=O)[C@H]2CCCN2C(=O)CN(Cc2ccccc2)C(=O)[C@H](CC(C)C)N(C)C(=O)C[C@H](Cc2ccccc2)NC(=O)[C@H](Cc2ccccc2)NC1=O |

The last 2 entries again:

| structure (SMILES) | PAMPA (log10 cm/s) |
|---|---|
| CC(C)C[C@@H]1NC(=O)C[C@H](Cc2ccccc2)NC(=O)[C@H](Cc2ccccc2)NC(=O)[C@@H](CC(C)C)N(C)C(=O)[C@H]2CCCN2C(=O)CN(Cc2ccccc2)C1=O | -5.38 |
| CC(C)C[C@@H]1NC(=O)[C@H]2CCCN2C(=O)CN(Cc2ccccc2)C(=O)[C@H](CC(C)C)N(C)C(=O)C[C@H](Cc2ccccc2)NC(=O)[C@H](Cc2ccccc2)NC1=O | -5.48 |

Source: CycPeptMPDB (Li et al. 2023), which took these values from Townsend et al. 2020, doi:10.26434/chemrxiv.13335941.v1.